Assays:
[1] = human liver microsome (HLM) metabolic stability assay; conditions: human liver microsomes; % hepatic blood flow calculated from t1/2
Procedure: The 5 time point, high-throughput human liver microsome (HLM) metabolic stability assay is designed to determine in vitro compound metabolism. Compounds are incubated with HLMs at a concentration of 1 uM, at 37° C., for a total of 60 min. The percent of compound remaining at 5, 15, 30, and 60 min is used to calculate the t½ (min), CLint (mL/min/kg), CLh (mL/min/kg), and % Qh. The assay is based on a 96-well format and can accommodate up to 92 compounds per plate (n=1).
Using the 96-well multi-channel head, the Biomek FX, equipped with a Peltier heating block/shaker, is programmed to accomplish the following steps: • 1. Pipette 175 uL of 1.15 mg/mL microsomes into each of the 96 conical inserts (Analytical Sales and Products, catalog number 96PL05) that fit into the plate of the Peltier heating block/shaker (the incubation plate) • 2. Add 5 uL of compounds from the assay plate to the microsomes and shake the mixture at 600 rpm at 42.1° C. for 10 min (a setting of 42.1° C. on the Peltier is required for the samples to incubate at 37° C.) • 3. After 10 min, prompt the user to add the NADPH plate to the deck and add 20 uL from the NADPH plate to the incubation plate to start the reaction • 4. Add 215 uL of 100%, cold acetonitrile containing an internal standard(s) to a 0 minute, 5 minute, 15 minute, 30 minute, and 60 minute “quench” plate • 5. At 0 min, 5 min, 15 min, 30 min, and 60 min into the incubation, aspirate 12 uL from the incubation mixture and add it to the quench solution to stop the reaction • 6. Add 185 uL HPLC grade water to each well of the 0, 5, 15, 30 and 60 minute quench plates to dilute compounds to the appropriate concentration for the mass spectrometer
After all time points are collected, the quench plates are sealed with 96-well pierceable plate mats or heat sealing foil and centrifuged at 3000 rpm for 15 min to pellet the microsomes.
The plates are analyzed using LC/MS/MS with electron spray ionization (ESI) and the previously determined MRM transitions. The LC method includes the following parameters:
Using an Excel template in Activitybase, the peak areas corresponding to 5, 15, 30 and 60 min are compared to the peak area at 0 min to calculate the percent of remaining compound using the following equation: Percent compound remaining=(AUC at Time t min/AUC at Time 0 min)×100 where t=0, 5, 15, 30 or 60 min.
Time (min) is plotted against the natural logarithm (Ln) of the percent compound remaining to determine the slope. The slope is used to calculate t½ (min) using the equation, t½=0.693/slope.
Clint, Intrinsic Clearance 0.693/t½*Avg liver wt in g/avg body wt in kg*f(u)/protein concentration in incubation in mg/mL*mg microsomal protein/g liver 0.693/t½*26 g/kg*1/1.0 mg/mL*45 mg/g Clh, Hepatic Clearance Hepatic flow*f(u)*Clint/(hepatic flow+f(u)*Clint) Qh, % Hepatic Blood Flow (Clh/Hepatic flow)*100
Preferred compounds have % Qh values of less than 24.

By UniProt entry, the sequences of proteins in these tests, tags left out.
UniProt Q02108, whole entry: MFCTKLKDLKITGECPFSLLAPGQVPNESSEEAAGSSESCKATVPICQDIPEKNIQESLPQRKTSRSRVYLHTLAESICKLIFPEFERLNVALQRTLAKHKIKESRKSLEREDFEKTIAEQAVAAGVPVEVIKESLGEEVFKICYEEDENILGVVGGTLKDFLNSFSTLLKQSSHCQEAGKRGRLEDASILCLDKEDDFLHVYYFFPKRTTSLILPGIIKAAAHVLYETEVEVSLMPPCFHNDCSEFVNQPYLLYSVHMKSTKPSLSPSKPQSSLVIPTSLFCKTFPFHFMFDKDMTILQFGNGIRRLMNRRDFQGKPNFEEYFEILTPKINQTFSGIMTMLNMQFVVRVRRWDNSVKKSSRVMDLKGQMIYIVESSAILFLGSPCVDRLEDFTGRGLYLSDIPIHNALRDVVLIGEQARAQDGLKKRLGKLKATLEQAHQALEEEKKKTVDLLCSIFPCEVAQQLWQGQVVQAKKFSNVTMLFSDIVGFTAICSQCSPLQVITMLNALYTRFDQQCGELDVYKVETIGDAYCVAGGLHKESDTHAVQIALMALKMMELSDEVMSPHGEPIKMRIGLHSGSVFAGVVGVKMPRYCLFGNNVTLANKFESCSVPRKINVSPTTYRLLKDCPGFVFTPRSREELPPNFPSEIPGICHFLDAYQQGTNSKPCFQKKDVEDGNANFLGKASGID
UniProt Q02153, whole entry: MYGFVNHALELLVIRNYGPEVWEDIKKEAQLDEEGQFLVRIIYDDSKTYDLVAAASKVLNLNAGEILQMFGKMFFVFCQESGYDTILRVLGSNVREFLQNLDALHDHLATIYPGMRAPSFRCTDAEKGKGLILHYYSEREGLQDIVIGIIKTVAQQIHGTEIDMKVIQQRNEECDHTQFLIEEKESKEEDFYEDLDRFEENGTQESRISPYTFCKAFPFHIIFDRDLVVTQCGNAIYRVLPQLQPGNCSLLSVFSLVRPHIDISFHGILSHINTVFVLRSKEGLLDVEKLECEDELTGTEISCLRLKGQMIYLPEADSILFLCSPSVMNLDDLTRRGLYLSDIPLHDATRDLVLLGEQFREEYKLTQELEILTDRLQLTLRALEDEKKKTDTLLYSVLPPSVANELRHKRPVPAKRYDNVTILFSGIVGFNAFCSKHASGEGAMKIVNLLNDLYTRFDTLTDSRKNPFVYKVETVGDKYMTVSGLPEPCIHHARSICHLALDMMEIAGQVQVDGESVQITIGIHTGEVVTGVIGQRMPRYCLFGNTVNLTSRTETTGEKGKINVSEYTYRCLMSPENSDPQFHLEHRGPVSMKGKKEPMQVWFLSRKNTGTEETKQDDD

[2] = target: human soluble guanylate cyclase alpha 1 and beta 1 subunits (sGC) (Homo sapiens, UniProt Q02108+Q02153); experiment: sGC cellular activator assay (cGMP, HTRF); conditions: CHO cells stably expressing human sGC alpha 1/beta 1, preincubated with 40 microM ODQ; cGMP readout; assay run with and without 50% human serum, Table 2 does not say which
Procedure: The sGC cellular activator assay is performed in the presence and absence of 50% human serum (HS) using Chinese hamster ovary cells that have been stably transfected to express the human soluble guanylate cyclase alpha 1 and beta 1 subunits (sGC). Cells are preincubated with 40 microM 1H-[1,2,4]oxadiazolo[4,3-a]quinoxalin-1-one (ODQ), an sGC inhibitor, for one h in buffer containing 0.1% bovine serum albumin and 3-isobutyl-1-methylxanthine (IBMX). Concentration response curves are prepared for test compounds in DMSO. An intermediate dilution of the compounds is performed in either buffer containing IBMX or type AB HS containing IBMX. Diluted compounds are added to cells and they are incubated at room temperature for thirty min. cGMP is measured using a CisBio homogeneous time resolved fluorescence kit and the EC50 is calculated for each compound.
Representative compounds of the present invention were tested for activity the above assay. Preferred compounds have an EC50 of <1,000 nM in the above assay and more preferred compounds have an EC50<200 nM.

[3] = room temperature, 2.5% DMSO; for Solubility (pH 2.2): McIlvaine buffer pH 2.2, 24 h; for Solubility (pH 4.5): McIlvaine buffer pH 4.5, 24 h; for Solubility (pH 6.8): McIlvaine buffer pH 6.8, 24 h

| Structure (SMILES) | HLM (% Qh) [1] [% Qh] | EC50 [2] [nM] | Solubility (pH 2.2) [3] [μg/mL] | Solubility (pH 4.5) [3] [μg/mL] | Solubility (pH 6.8) [3] [μg/mL] |
| --- | --- | --- | --- | --- | --- |
| Cc1cccc(-c2cccc(-n3ncc(C(=O)O)c3OC(C)C)n2)c1OCc1ccc2c(c1C)CCN(C1CCCOC1)C2 (stereo not drawn) | <24 | 10 | 100 | 82 | 86 |
| Cc1cccc(-c2cccc(-n3ncc(C(=O)O)c3OC(C)C)n2)c1OCc1ccc2c(c1C)CCN(C1CCOC1)C2 (stereo not drawn) | <24 | 22 | 87 | 69 | 79 |
| COc1c(C(=O)O)cnn1-c1cccc(-c2cccc(C)c2OCc2ccc3c(c2C)CCN([C@H]2CCOC2)CC3)n1 | <24 | 7.4 | – | – | – |
| CCOc1c(C(=O)O)cnn1-c1cccc(-c2cccc(C)c2OCc2ccc3c(c2)CCN(C2CCOCC2)CC3)n1 | <24 | 13 | – | – | – |
| Cc1cccc(-c2cccc(-n3ncc(C(=O)O)c3OC(C)C)n2)c1OCc1ccc2c(c1)CCN([C@@H]1CCOC1)C2 | <24 | 34 | 88 | 33 | 36 |
| CCOc1c(C(=O)O)cnn1-c1cccc(-c2cccc(C)c2OCc2cc(C)c3c(c2C)CCN(C2CCOCC2)C3)n1 | <24 | 11 | – | – | – |
